These are literature values, as cited in PMC6005658 (Bioorganic & medicinal chemistry, 2017).

For this data set, the system named is κ opioid receptors in brain.

Regarding “[N^α-benzyl-Tyr^1,cyclo(D-Asp^5,Dap^8)]Dyn A-(1–11)NH2 [zyklophin]”, the blood-brain barrier crossing result is on record as “can cross the blood-brain barrier”.
